According to ChEMBL document CHEMBL1130526, “Amide surrogates of matrix metalloproteinase inhibitors: Urea and sulfonamide mimics” (Bioorg Med Chem Lett, 1997):

Biological target: T1, Interstitial collagenase (Homo sapiens, UniProt P03956)
T1 sequence (P03956 whole entry): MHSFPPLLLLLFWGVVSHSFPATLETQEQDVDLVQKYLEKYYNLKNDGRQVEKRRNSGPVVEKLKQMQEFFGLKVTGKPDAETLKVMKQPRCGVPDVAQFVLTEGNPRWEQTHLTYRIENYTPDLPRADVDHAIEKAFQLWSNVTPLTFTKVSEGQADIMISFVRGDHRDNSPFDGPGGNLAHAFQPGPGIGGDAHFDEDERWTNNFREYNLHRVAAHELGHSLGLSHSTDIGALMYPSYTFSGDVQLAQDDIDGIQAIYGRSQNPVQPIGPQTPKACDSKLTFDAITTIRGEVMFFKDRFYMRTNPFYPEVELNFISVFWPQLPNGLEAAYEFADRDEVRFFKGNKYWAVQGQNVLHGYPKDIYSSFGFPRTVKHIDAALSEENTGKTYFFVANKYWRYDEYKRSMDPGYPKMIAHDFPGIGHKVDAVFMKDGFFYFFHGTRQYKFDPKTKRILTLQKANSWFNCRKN
Assay: Inhibition of Matrix metalloprotease-1 (MMP-1)

- Ki: < 10 nM
Compound: CNC(=O)[C@H](Cc1ccc(OC)cc1)NC(=O)[C@@H](CC(=O)NO)CC(C)C
